Apparent affinities of Ab-14 variants for a coronavirus HR2 peptide

The target is the same throughout: PDVDLGDISGINAS, from the HR2 region of SARS-CoV-2 spike.

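Phage display of a naive human antibody library on the peptide gave the parent. The library (AAYL50) carries one to three amino acid substitutions per variant, with no insertions or deletions. Affinity was read by AlphaSeq, a pooled yeast mating assay with surface-displayed partners. Mating (16 h, 30 °C) was followed by selection of diploids and sequencing of their barcodes. The ratio of observed to expected reads was calibrated, replicate by replicate, on BCL2-family standards whose Kd was known from biolayer interferometry. The assay was run in three technical replicates.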

Parent: Ab-14, a human scFv built as VH, a (GGGGS)3 linker, VL. Only the CDRs of the light chain vary.
VH: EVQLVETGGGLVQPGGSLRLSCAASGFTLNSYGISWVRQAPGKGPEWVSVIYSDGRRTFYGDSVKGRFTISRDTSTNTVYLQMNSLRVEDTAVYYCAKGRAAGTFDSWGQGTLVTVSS
VL: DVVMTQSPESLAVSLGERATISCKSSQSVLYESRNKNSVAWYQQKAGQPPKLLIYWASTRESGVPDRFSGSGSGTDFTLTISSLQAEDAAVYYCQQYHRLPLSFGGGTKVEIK

Substitutions are numbered in sequence along the VL above, starting at 1 (not Kabat). This list gathers variants with a substitution at R34 (VL, numbered from residue 1). Each Kd is an estimate from the mating assay, the geometric mean of the replicates in which the pair was seen; lower is stronger. "no signal" marks a missing value. The strain was present, yet no cells mated with the target were sequenced in any replicate, which points to weak or no binding.

* R34E/N35E/Q95G: no signal (0 of 3 replicates; controls 0 of 9)
* R34I/R60W: 140 µM (2 of 3 replicates; controls 2 of 9)
* R34N/N35Y/H98K: 17 µM (2 of 3 replicates; controls 3 of 9)
* S26Y/R34L/S62W: 45 nM (3 of 3 replicates; controls 4 of 9)
* V29Y/R34C/S58A: 280 nM (2 of 3 replicates; controls 1 of 9)
* R34M/T59W/Y97A: 74 µM (3 of 3 replicates; controls 8 of 9)
* S28A/R34W/S38W: no signal (0 of 3 replicates; controls 0 of 9)
* Q27I/R34M: 3.0 nM (3 of 3 replicates; controls 1 of 9)
* S33Y/R34W/Q95A: 6.3 nM (3 of 3 replicates; controls 3 of 9)
* R34D/Q95A: 76 nM (3 of 3 replicates; controls 1 of 9)
* R34L/S38F/Q95M: 1.8 µM (3 of 3 replicates; controls 2 of 9)
* S28F/R34G/L100P: 130 nM (1 of 3 replicates; controls 0 of 9)
* S25R/R34F/L100G: 55 nM (3 of 3 replicates; controls 1 of 9)
* R34K/K36T/S38M: 31 nM (3 of 3 replicates; controls 2 of 9)
* R34I/S38I/S62M: 2.2 µM (1 of 3 replicates; controls 0 of 9)
* E32Y/R34C/S58D: 230 nM (3 of 3 replicates; controls 1 of 9)
* R34W/S38E: 5.2 µM (2 of 3 replicates; controls 3 of 9)
* R34M/S38M/T59H: 29 nM (3 of 3 replicates; controls 1 of 9)
* R34E/T59V/R60G: 92 nM (3 of 3 replicates; controls 1 of 9)
* R34Y/A40D/Q95W: no signal (0 of 3 replicates; controls 0 of 9)
* V29D/R34Q/Q95P: no signal (0 of 3 replicates; controls 1 of 9)
* S26G/R34P/L102M: 3.2 µM (3 of 3 replicates; controls 0 of 9)
* R34K/A57C/R99I: 320 nM (3 of 3 replicates; controls 0 of 9)
* R34P/T59D: 420 nM (1 of 3 replicates; controls 2 of 9)
* S28F/R34Q/Y97A: no signal (0 of 3 replicates; controls 0 of 9)

Excerpt, the final 2 entries:

* R34P/T59D -> 420 nM (1 of 3 replicates; controls 2 of 9)
* S28F/R34Q/Y97A -> no signal (0 of 3 replicates; controls 0 of 9)

Three control strains display no target. For library AAYL50, 18% of the pairings with them gave a signal, with a median of 15 µM and one signal in twenty below 970 nM, so weak values seen in few replicates may be background. The control count says in how many pairings with the empty strains this scFv gave a signal. Parent in this assay: reference entry 4.4 nM, copy in this library 48 nM.

Data: MIT Lincoln Laboratory AlphaSeq set, Engelhart et al. 2022, doi:10.1038/s41597-022-01779-4, as distributed in FLAb.